{"source": "patent US11305024B2", "about": "“Cross-linked polymer modified nanoparticles” (OREGON HEALTH & SCIENCE UNIVERSITY, priority 2015, dated 2022)", "key": {"HCC1954": {"system": "HCC1954", "details": "in vitro and/or in mice; cited from earlier work"}, "HER2+ cell lines": {"system": "HER2+ cell lines", "test": "Growth inhibition by siHER2 in a panel of HER2+ cell lines", "assay_type": "cell-based", "details": "30 μg/ml trastuzumab", "excerpt": "The exemplary siHER2 was selected by measuring the efficacy and specificity with which it reduced HER2 mRNA levels and growth in HER2^+ cell lines but not HER2^− cell lines."}, "BT474-TRgf xenografts": {"system": "BT474-TRgf xenografts", "test": "Tumor growth in BT474-TRgf xenografts", "assay_type": "in vivo, mice", "details": "tumor mouse model, i.v.", "procedure": "FIGS. 20A-20B show tumor growth in mice bearing trastuzumab-resistant tumor xenografts following nanoconstruct treatment. FIG. 20A is a graph showing BT474-TRgf to be resistant to trastuzumab in vitro compared to parental BT474. FIG. 20B is a graph showing tumor growth in mice bearing BT474-TRgf xenografts (n=5-7/group) post i.v. injection with saline, trastuzumab (2.5 mg/kg, twice weekly) or trastuzumab-conjugated nanoconstruct (T-NP) loaded with siHER2 or siSCR at the time points indicated by arrows. Black indicates 1.25 mg siRNA/kg, and gray indicates 2.5 mg siRNA/kg.\n(§1) In another example, BT474-TRgf (BT474 variant developed to be resistant to trastuzumab by serial passaging the cells in mice, Francia et al., 2012) was used to evaluate the efficacy of T-siHER2-NP. While the BT474-TRgf cells were resistant to trastuzumab in vitro (FIG. 20A) and in a tumor mouse model (FIG. 20B), they responded to T-siHER2-NP treatment in the tumor model (FIG. 20B). siHER2 dose was 1.25-2.5 mg/siRNA and 5 animals per treatment group."}, "BT474-TRgf": {"system": "BT474-TRgf", "test": "Response of BT474-TRgf cells in vitro", "assay_type": "cell-based", "procedure": "as §1"}, "HCC1954 tumor xenografts": {"system": "HCC1954 tumor xenografts", "test": "Tumor growth in orthotopic HCC1954 tumor xenografts", "assay_type": "in vivo, mice", "details": "multiple doses", "procedure": "In vivo gene silencing studies were performed in orthotopic mouse tumor models; 4×10^6 HCC1954 cells (unless specified otherwise) were implanted into the mammary fat pads of 5-week-old SCID mice (Charles River, Wilmington, Mass.) and allowed to grow to an average size of about 250 mm^3. Mice were then grouped and proceeded to receive a single injection (tail vein) of the nanoconstructs (T-siHER2-NP^10C or T-siSCR-NP^10C, 1.25 mg/kg siRNA), or the PBS control. The tumors were harvested four days after treatment and analyzed for HER2 protein expression by immunofluorescence as shown in FIG. 16A and quantified in FIG. 16B. […] It should be noted that 23% (p=0.27 vs. saline control) of the HER2 reduction in the siSCR control is likely due to trastuzumab on the nanoconstructs.\nThis response is noteworthy since HCC1954 has been established as resistant to cisplatin (I. Beyer et al., 2012), trastuzumab (I. Beyer et al., 2012), and pertuzumab (F. Henjes, et al., 2012) in vitro and/or in mice."}, "BT474-R": {"system": "BT474-R", "test": "Cell viability in resistant BT474-R versus parental BT474", "assay_type": "cell-based", "details": "cell viability 5 days post-treatment; 60 nM siRNA for nanoconstructs", "procedure": "FIGS. 13A-13C show the effect of trastuzumab and siHER2-nanoconstructs on cell viability. FIG. 13A is a graph showing BT474-R to be resistant to trastuzumab, compared to parental BT474. FIG. 13B is a graph showing the ability of T-siHER2-NP^10C to achieve the same response in BT474-R and BT474 with respect to siHER2 action, while FIG. 13C is a graph showing that trastuzumab on a nanoconstruct without siHER2 (T-siSCR-NP^10C) elicits less of a response in the resistant BT474-R cells. 60 nM siRNA was used, and cell viability was measured 5 days post-treatment with media replenished overnight after treatment.\nThe efficacy of T-siHER2-NP^10C in intrinsically trastuzumab-resistant HER2+ cell lines (HCC1954 and JIMT1), in a parental HER2+ cell line (BT474) that responds to trastuzumab and lapatinib, and in BT474-R, a derivative cell line that was made lapatinib-resistant by long-term treatment with 1 μM lapatinib was also assessed."}}, "data": [{"substance": "trastuzumab", "values": [{"measurement": "resistance of HCC1954", "setting": "HCC1954", "value": "resistant"}, {"measurement": "response of the HER2+ cell lines to trastuzumab", "setting": "HER2+ cell lines", "value": "14 out of 20 cells did not respond"}, {"measurement": "response of BT474-TRgf tumors", "setting": "BT474-TRgf xenografts", "value": "resistant"}, {"measurement": "response of BT474-TRgf cells", "setting": "BT474-TRgf", "value": "resistant"}, {"measurement": "tumor growth", "setting": "HCC1954 tumor xenografts", "value": "resistance in vivo"}, {"measurement": "response of BT474-R compared to parental BT474", "setting": "BT474-R", "value": "much less responsive"}]}]}
